Conditions: mouse, microsomes, 0.5 h

## COCCOc1c(C(=O)Nc2ccc(COC)cc2)c2c(N)ncnc2n1C1(C)CC1
  Remaining (%): 68%

## COCc1ccc(NC(=O)c2c(C#N)n(C3(C)CC3)c3ncnc(N)c23)cc1
  Remaining (%): 76%
